# Binding of CDR-mutated scFvs to a peptide of the spike HR2 region

Values reported by Engelhart et al. 2022, doi:10.1038/s41597-022-01779-4 (FLAb copy).

Target: peptide PDVDLGDISGINAS, taken from heptad repeat 2 (HR2) of SARS-CoV-2 spike.

Parent scFv Ab-14: VH joined to VL by three GGGGS repeats. Changes lie in the heavy chain CDRs alone.
VH: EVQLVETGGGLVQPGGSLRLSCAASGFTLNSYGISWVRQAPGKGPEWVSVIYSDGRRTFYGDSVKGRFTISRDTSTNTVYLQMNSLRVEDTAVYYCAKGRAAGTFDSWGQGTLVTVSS
VL: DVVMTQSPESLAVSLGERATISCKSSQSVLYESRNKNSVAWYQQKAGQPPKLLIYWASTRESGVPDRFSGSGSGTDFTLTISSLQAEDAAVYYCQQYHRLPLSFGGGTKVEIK

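The starting antibody came from a phage panning campaign against this peptide. AAYL49 was designed without a model: most single CDR substitutions and a random sample of double and triple ones. The assay is AlphaSeq: two haploid yeast populations carry antibody and antigen on their surface. Pairs that bind mate more often; barcode pairs of the diploids are counted by sequencing. The ratio of observed to expected reads was calibrated, replicate by replicate, on BCL2-family standards whose Kd was known from biolayer interferometry. Each pool was mated in three replicate cultures.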

Each variant is given by its three heavy chain CDRs, as the data file delimits them; those of the parent are GFTLNSYGIS, VIYSDGRRTFYGDSVK, GRAAGTFDS. All variants listed here change T58 of the VH, counted from its first residue. Affinities are written as log10 Kd with Kd in nM; a lower number is a better binder. Replicates are averaged; those with no signal do not enter the mean. An entry "nd" has no value in the source: the pair was not observed among the diploids in any replicate. This suggests poor binding but is not conclusive. Empty control strains, which show no peptide, gave a signal in 15% of pairings with library AAYL49; the median was 4.06 and 95% of these signals were weaker than 2.83. No background was subtracted. The control count says in how many pairings with the empty strains this scFv gave a signal.

- GFTLNSYGIS | VIYSDGRCEFYGDSVK | GRAAGTFDS: nd (0 of 3 replicates; controls 2 of 9)
- GFTLNSYGSS | VIYSDGRRGNYGDSVK | GRAAGTFDS: 4.62 (1 of 3 replicates; controls 1 of 9)
- GFTLNSYVIS | VIYSDGRRKFYGDSVK | GRAAGTFDS: nd (0 of 3 replicates; controls 0 of 9)
- GFTLNSYGIS | VIYSDGRREAYGDSVK | GRAGGTFDS: 0.61 (3 of 3 replicates; controls 1 of 9)
- GFTLNSYHIS | VIYSDGRRWFYGESVK | GRAAGTFDS: nd (0 of 3 replicates; controls 1 of 9)
- WFTLNSVGIS | VIYSDGRRCFYGDSVK | GRAAGTFDS: nd (0 of 3 replicates; controls 3 of 9)
- GFDLNSLGIS | VIYSDGRRMFYGDSVK | GRAAGTFDS: 1.52 (3 of 3 replicates; controls 0 of 9)
- GFTANSYGIS | VIYSDGNRSFYGDSVK | GRAAGTFDS: nd (0 of 3 replicates; controls 1 of 9)
- GFTLNSYGIS | VIYVDGRRQFYGDSVK | SRAAGTFDS: nd (0 of 3 replicates; controls 1 of 9)
- GFTLNSYGIS | VIYSDGRRKFYGDDVK | GRAAGTFDS: 0.87 (3 of 3 replicates; controls 0 of 9)
- GFTLNSYGIS | VIYSDGFRGFYGDSVK | GRAAGTFIS: nd (0 of 3 replicates; controls 1 of 9)
- GFTLNSYGIS | VIYSDGRRHFYGDSVK | GRYAGTFDH: 3.15 (3 of 3 replicates; controls 0 of 9)
- GFTLNSYGIS | VIYSDGRRRFYGDSVK | GRAAGTFDS: 1.68 (3 of 3 replicates; controls 3 of 9)
- GGTLNSYGIS | VIYSDGRRVFRGDSVK | GRAAGTFDS: 4.81 (1 of 3 replicates; controls 3 of 9)
- GFTANSYGIS | VIYSDGRRVFYGDSVK | GRAAGTFNS: 3.44 (2 of 3 replicates; controls 2 of 9)
- GFDLNSYGIS | VIYSDGRRQFYGDSAK | GRAAGTFDS: 0.97 (3 of 3 replicates; controls 3 of 9)
- GFTLNSYGVS | VIYSDGRMVFYGDSVK | GRAAGTFDS: nd (0 of 3 replicates; controls 1 of 9)
- GFTLSSYGIS | VIYSDGRRKFYGDSVK | GRIAGTFDS: nd (0 of 3 replicates; controls 2 of 9)
- GFTLNSDGIS | VMYSDGRRAFYGDSVK | GRAAGTFDS: 3.91 (1 of 3 replicates; controls 3 of 9)
- GFTLNSYGIS | VIYSDGRDGFYGDSVK | GRAAGTKDS: 4.31 (2 of 3 replicates; controls 4 of 9)
- GFTLNSYWIS | VIYSDGRRWFYGDSVK | GRAAQTFDS: 3.64 (2 of 3 replicates; controls 1 of 9)
- GFTLNSYGIS | VIYSDGCRDFYGDSVK | GRAAGYFDS: 5.08 (2 of 3 replicates; controls 3 of 9)
- GFTLYSYGIS | VIYHDGRRPFYGDSVK | GRAAGTFDS: nd (0 of 3 replicates; controls 2 of 9)
- GFTLNSYGIS | VIYSDGRRLFYGDSVK | GRAAGTFDS: 2.50 (3 of 3 replicates; controls 0 of 9)
- GFTLNSYGIS | VIYSDQRRLFYGDSVK | GRAAGTFDS: nd (0 of 3 replicates; controls 1 of 9)
- GFTKNSCGIS | VIYSDGRRKFYGDSVK | GRAAGTFDS: nd (0 of 3 replicates; controls 0 of 9)
- GFTLNSYGID | VIYSDGRRKFYGDSVK | GRAAGTVDS: nd (0 of 3 replicates; controls 1 of 9)
- GFTLNSYGIS | VIYSDGPRHFYGDSVK | GRAAGTFDS: 4.35 (3 of 3 replicates; controls 2 of 9)
- GFTLNSYGIS | VIYSDGRRDEYGDSVK | GRAAGTFQS: nd (0 of 3 replicates; controls 0 of 9)
- FFTLNSYGIS | VIYSSGRRCFYGDSVK | GRAAGTFDS: nd (0 of 3 replicates; controls 0 of 9)
- GFTLNSYGWS | VIYSDGRRWFYGDSWK | GRAAGTFDS: nd (0 of 3 replicates; controls 1 of 9)
- GFTLNSYGIS | VIYSDGRRMWYGDSVK | GTAAGTFDS: 2.37 (3 of 3 replicates; controls 3 of 9)
- GFTLNSYGIS | VIYMDGRRLFYGDSVK | GRAAITFDS: 4.87 (1 of 3 replicates; controls 1 of 9)
- GFTLNSYGIS | VIYSDGRRFFYGNSVK | GRAAGTDDS: 3.39 (2 of 3 replicates; controls 2 of 9)
- GFTLNSYGIS | VIYSDSRRQFYGDSVK | GRAAGTFMS: 3.67 (2 of 3 replicates; controls 2 of 9)
- GFTLNSNGIS | VIYSDGRRNFYGDSVK | GRAAATFDS: 4.50 (2 of 3 replicates; controls 2 of 9)
- GFTLNSYGIS | VIYSDGRRSFYGDSVK | GRAAFVFDS: 0.82 (3 of 3 replicates; controls 0 of 9)
- GFTLNSYGIS | VIYYDGRRMFYGDSVK | GRPAGTFDS: 5.51 (1 of 3 replicates; controls 0 of 9)

The first 3 entries again:

CDR-H1	CDR-H2	CDR-H3	mean log10 Kd (nM)	seen in	empty controls
GFTLNSYGIS	VIYSDGRCEFYGDSVK	GRAAGTFDS	nd	0 of 3	2 of 9
GFTLNSYGSS	VIYSDGRRGNYGDSVK	GRAAGTFDS	4.62	1 of 3	1 of 9
GFTLNSYVIS	VIYSDGRRKFYGDSVK	GRAAGTFDS	nd	0 of 3	0 of 9